The results in this text go back to patent US8778958B2, “Synthesis of metabolically stable agents for alcohol and drug abuse” (priority 2008, dated 2014).

By UniProt entry, the sequences of proteins in these tests, tags left out. Where a name states a change or a piece, a line headed by the entry shows the natural chain unless it says otherwise.
UniProt P10635, whole entry: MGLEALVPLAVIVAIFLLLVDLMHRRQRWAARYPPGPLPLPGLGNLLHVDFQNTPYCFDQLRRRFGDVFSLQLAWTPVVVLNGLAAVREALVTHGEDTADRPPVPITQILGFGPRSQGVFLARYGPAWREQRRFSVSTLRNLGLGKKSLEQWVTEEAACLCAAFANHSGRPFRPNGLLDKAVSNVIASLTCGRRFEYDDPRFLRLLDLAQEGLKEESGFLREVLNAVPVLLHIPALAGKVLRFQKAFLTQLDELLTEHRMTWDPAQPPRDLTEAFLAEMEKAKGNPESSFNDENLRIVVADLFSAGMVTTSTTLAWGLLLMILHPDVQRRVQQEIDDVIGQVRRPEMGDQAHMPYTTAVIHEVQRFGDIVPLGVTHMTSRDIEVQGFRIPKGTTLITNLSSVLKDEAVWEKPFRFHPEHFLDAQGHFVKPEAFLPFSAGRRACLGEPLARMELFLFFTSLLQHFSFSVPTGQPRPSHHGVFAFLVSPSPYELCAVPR
UniProt P35372, whole entry: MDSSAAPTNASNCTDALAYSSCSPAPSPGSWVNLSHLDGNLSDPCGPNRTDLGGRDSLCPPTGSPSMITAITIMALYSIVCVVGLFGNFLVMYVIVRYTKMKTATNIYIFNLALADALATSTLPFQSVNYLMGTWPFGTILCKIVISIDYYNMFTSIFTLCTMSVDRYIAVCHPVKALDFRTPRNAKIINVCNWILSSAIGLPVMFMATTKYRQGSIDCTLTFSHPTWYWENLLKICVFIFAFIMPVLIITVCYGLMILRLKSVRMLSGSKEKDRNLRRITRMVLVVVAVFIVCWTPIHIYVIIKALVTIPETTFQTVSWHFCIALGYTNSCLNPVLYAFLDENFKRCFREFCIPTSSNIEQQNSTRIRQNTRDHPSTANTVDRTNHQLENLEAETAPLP
UniProt P32300, whole entry: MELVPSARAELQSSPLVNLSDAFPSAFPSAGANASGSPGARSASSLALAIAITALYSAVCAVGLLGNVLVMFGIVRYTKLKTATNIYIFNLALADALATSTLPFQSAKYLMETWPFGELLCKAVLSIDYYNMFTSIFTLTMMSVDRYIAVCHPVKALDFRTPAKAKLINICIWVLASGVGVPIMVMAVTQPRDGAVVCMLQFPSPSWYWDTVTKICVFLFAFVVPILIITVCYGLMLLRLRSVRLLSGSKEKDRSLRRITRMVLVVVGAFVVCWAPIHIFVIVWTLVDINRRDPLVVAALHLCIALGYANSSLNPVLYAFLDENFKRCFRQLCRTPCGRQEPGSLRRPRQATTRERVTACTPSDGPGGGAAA
UniProt P33534: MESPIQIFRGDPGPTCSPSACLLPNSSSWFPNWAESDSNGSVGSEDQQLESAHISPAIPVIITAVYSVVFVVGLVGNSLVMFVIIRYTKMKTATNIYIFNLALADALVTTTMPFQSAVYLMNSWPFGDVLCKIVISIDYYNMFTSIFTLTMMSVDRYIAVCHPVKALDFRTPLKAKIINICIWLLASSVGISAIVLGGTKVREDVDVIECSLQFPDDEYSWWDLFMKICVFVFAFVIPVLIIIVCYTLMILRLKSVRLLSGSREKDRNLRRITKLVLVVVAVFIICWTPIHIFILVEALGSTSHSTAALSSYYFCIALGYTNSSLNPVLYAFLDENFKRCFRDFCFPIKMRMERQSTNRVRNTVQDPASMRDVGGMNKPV
UniProt P42866, whole entry: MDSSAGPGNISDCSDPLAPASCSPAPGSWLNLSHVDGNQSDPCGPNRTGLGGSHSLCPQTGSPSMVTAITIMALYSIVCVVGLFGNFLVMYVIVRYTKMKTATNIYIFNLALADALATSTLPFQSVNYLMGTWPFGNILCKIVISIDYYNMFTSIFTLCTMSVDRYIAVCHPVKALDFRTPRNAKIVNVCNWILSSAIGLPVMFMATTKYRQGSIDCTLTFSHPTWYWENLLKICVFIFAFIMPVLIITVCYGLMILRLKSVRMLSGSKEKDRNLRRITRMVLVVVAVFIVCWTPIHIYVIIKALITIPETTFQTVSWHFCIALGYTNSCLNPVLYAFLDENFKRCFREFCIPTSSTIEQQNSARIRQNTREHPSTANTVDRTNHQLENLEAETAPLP
UniProt P41146: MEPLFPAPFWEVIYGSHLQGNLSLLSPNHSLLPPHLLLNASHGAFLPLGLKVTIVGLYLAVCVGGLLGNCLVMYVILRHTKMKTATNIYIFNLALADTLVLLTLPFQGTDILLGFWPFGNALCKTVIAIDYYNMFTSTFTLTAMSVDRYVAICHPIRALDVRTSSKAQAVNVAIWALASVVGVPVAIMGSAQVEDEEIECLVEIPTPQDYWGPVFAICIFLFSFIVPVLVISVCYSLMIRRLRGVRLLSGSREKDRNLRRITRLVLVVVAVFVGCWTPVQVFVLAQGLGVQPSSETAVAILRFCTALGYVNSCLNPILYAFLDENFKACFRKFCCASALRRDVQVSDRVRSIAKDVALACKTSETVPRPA

The structures appear in SMILES notation. Where two headings read alike, the source gives them in different places.

Data set [1] concerns the target CYP2D6 (Homo sapiens, UniProt P10635). Kind of data set: CYP inhibition, CYP2D6 (Vivid Blue substrate). The note with it: 10 μM test compound; ND = no detectable inhibition.
Data set [2] deals with rats trained to orally self-administer a 0.025% saccharin solution. Kind of data set: Operant oral saccharin self-administration (control). The note with it: dose 25 μg/kg, rat.
For data set [3], the target named is T1, μ-opioid receptor (Homo sapiens, UniProt P35372).
T1 construct: expressed in transfected cells; host or cells: CHO cells
Kind of data set: biochemical. The note with it: Ki (nM) ± SEM, Table 1a, two determinations. Format: binding.

Data set [4] addresses T2, δ-opioid receptor (Mus musculus, UniProt P32300).
T2 construct: hemagglutinin (HA); expressed in transfected cells
Kind of data set: biochemical. Format: biochemical, human. The conditions noted are these: for EC50: read-out: EC50, δ, stimulation of [35S]GTPγS binding; for Emax: read-out: Emax, δ, stimulation of [35S]GTPγS binding.

In data set [5] the target is T3, κ-opioid receptor (Mus musculus, UniProt P33534).
T3 construct: FLAG; expressed in transfected cells
Kind of data set: biochemical. Set-up: species or system human. The note with it: for EC50: read-out: EC50, κ, stimulation of [35S]GTPγS binding. (In general: GTPγS is a poorly hydrolysed GTP analogue; its binding reports G protein activation.)

Data set [6] addresses T3, κ-opioid receptor. Kind of data set: biochemical. Further details: species or system human. The note with it: read-out: EC50, κ, inhibition of basal [35S]GTPγS binding.
Data set [7] has as its system T4, κ-opioid receptor.
T4 construct: FLAG; expressed in transfected cells
Kind of data set: biochemical. Further details: species or system human. The conditions noted are these: read-out: Emax, κ, inhibition of basal [35S]GTPγS binding.

Data set [8] has as its target T2, δ-opioid receptor. Kind of data set: biochemical. Set-up: species or system human.
Data set [9] addresses T3, κ-opioid receptor. Kind of data set: biochemical. Set-up: species or system human.
Data set [10] addresses T5, μ-opioid receptor (Mus musculus, UniProt P42866). Kind of data set: biochemical.
Data set [11] deals with T5, μ-opioid receptor. Kind of data set: biochemical. Type of data set: biochemical, human. Set-up: FLAG; expressed in transfected cells. The note with it: for Emax: read-out: Emax, μ, stimulation of [35S]GTPγS binding, percentage of basal [35S]GTPγS binding stimulation; for EC50: read-out: EC50, μ, stimulation of [35S]GTPγS binding.
For data set [12], the target named is T5, μ-opioid receptor. Kind of data set: biochemical. The conditions noted are these: for Emax: read-out: Emax, μ, inhibition of basal [35S]GTPγS binding. Further details: FLAG; expressed in transfected cells; species or system human.
In data set [13] the test system is rats trained to self-administer a 10% (w/v) ethanol solution. Kind of data set: Operant oral ethanol self-administration. The conditions noted are these: for ED50: Rattus norvegicus, po, read-out: ED50, inhibition of alcohol self-administration.
Data set [14] concerns the target T2, δ-opioid receptor. Kind of data set: biochemical. Set-up: species or system human. The note with it: for Emax: read-out: Emax, δ, inhibition of basal [35S]GTPγS binding; for EC50: read-out: EC50, δ, inhibition of basal [35S]GTPγS binding.
In data set [15] the target is T6, NOP (nociceptin) receptor (Homo sapiens, UniProt P41146).
For data set [16], the target named is T6, NOP (nociceptin) receptor. Kind of data set: Inhibition of basal [35S]GTPγS binding (inverse agonism), NOP. Further details: FLAG; expressed in transfected cells. Type of data set: biochemical. The note with it: read-out: Emax, NOP, inhibition of basal [35S]GTPγS binding.
Setting [17] is: read-out: Emax, κ, stimulation of [35S]GTPγS binding, percentage of basal [35S]GTPγS binding stimulation.

For `C=C1CC[C@@]2(O)[C@H]3Cc4ccc(O)c5c4[C@@]2(CCN3CC2CC2)[C@H]1O5` [Compound 1b, nalmefene, reference compound], the “Percent Inhibition CYP2D6” value in [1] came to 31%. In data set [2], the “Number of saccharin self-administrations in one hour” value worked out at 7.3 ± 1.9.

On to `Cc1ccc(C(=O)N[C@@H]2CC[C@@]3(O)[C@H]4Cc5ccc(O)c6c5[C@@]3(CCN4CC3CC3)[C@H]2O6)cc1` [Compound 4, 6-β-(4′-Methyl)benzamido-14-hydroxy-17-(cyclopropylmethyl) nordesmorphine], for which the Ki – broadly, a measure of affinity in units of concentration, obtained from inhibition or displacement – was 0.3 to 1.09 nM in data set [3], 0.1 ± 0.02 nM in [8], 0.015 ± 0.0014 nM in data set [9] and 6.2 ± 1.9 nM in [10]. Also, the EC50 – broadly, the midpoint of the concentration-response curve – came out at 0.14 ± 0.1 nM in data set [4]; 2.4 ± 0.4 nM in data set [6]; 8.9 ± 0.2 nM in [12] (read-out: EC50, μ, inhibition of basal [35S]GTPγS binding). Moreover, the Emax (as a rule, the greatest response seen or fitted, relative to the assay's reference) came out at 10 ± 9.6% in [4], 0% in data set [5] (setting [17]), 20 ± 1.2% in data set [7] and 0% in data set [11]. Moreover, in data set [13], the ED50 worked out at 0.25 mg/kg.

Compound `O=C(N[C@@H]1CC[C@@]2(O)[C@H]3Cc4ccc(O)c5c4[C@@]2(CCN3CC2CC2)[C@H]1O5)c1ccc(C(F)(F)F)cc1` [Compound 5, 6-β-(4′-Trifluoromethyl)benzamido-14-hydroxy-17-(cyclopropylmethyl)nordesmorphine] showed a Ki in data set [3] of 0.3 to 1.09 nM. For the same compound, the Emax is 0% in data set [14], 0% in [7], 63 ± 14% in [11] and 0% in [12]. Also, the EC50 in [11] was found to be 16 ± 2.1 nM. Also, in data set [13], the ED50 was 0.019 mg/kg.

Regarding `O=C(N[C@@H]1CC[C@@]2(O)[C@H]3Cc4ccc(O)c5c4[C@@]2(CCN3CC2CC2)[C@H]1O5)c1ccc(Br)cc1` [Compound 6, 6-β-(4′-Bromo)benzamido-14-hydroxy-17-(cyclopropylmethyl) nordesmorphine], in data set [3], the Ki was in the range of 0.3 to 1.09 nM. For the same compound, the EC50 in [4] came to 0.2 ± 0.1 nM; in data set [5], 0.1 ± 0.1 nM; in data set [14] it was 66 ± 1.8 nM; in data set [11] it was 4.5 ± 0.5 nM. Further, the ED50 in [13] was found to be 0.042 mg/kg.

As to `O=C(N[C@@H]1CC[C@@]2(O)[C@H]3Cc4ccc(O)c5c4[C@@]2(CCN3CC2CC2)[C@H]1O5)c1ccc(I)cc1` [Compound 7, 6-β-(4′-Iodo)benzamido-14-hydroxy-17-(cyclopropylmethyl)nordesmorphine], in [3], the Ki was 0.3 to 1.09 nM. Also, the “Emax, δ, stimulation of [35S]GTPγS binding” value in data set [4] came to 45 ± 6.2%. Further, the EC50 worked out at 5.1 ± 2.9 nM in data set [4], 29 ± 3.4 nM in data set [5] and 8.8 ± 1.7 nM in data set [11]. For the same compound, the Emax in [5] (read-out: Emax, κ, stimulation of [35S]GTPγS binding) was 28 to 63%; in [5] (setting [17]), 28 ± 3.1%; in [14], 0%; in data set [7] it was 0%; in [11], 53 ± 2.8%; in data set [12] it was 0%. Further, the ED50 in data set [13] was determined as 0.038 mg/kg. For the same compound, in [13] (dose 25 μg/kg s.c., rat), the “Number of ethanol self-administrations” value is recorded as 24.7 ± 3.7^.

The compound `CC(C)(C)c1ccc(C(=O)N[C@@H]2CC[C@@]3(O)[C@H]4Cc5ccc(O)c6c5[C@@]3(CCN4CC3CC3)[C@H]2O6)cc1` [Compound 8, 6-(4′-t-Butyl)benzamido-14-hydroxy-17-(cyclopropylmethyl)nordesmorphine] displayed a Ki in [3] of 0.3 to 1.09 nM. Besides, the Emax in [4] was found to be 0%; in data set [5] (setting [17]), 0%; in data set [14], 28 ± 9.1%; in data set [7], 60 ± 2.6%; in data set [11] it was 0%. Further, the figures for the EC50 in [14] and in data set [6] were 0.3 ± 0.1 nM and 0.4 ± 1.2 nM, respectively. In addition, the ED50 in [13] amounted to 0.05 mg/kg.

Regarding `O=C(N[C@@H]1CC[C@@]2(O)[C@H]3Cc4ccc(O)c5c4[C@@]2(CCN3CC2CC2)[C@H]1O5)c1ccc(Cl)cc1` [Compound 10, 6-β-(4′-Chloro)benzamido-14-hydroxy-17-(cyclopropylmethyl)nordesmorphine], the Emax is 0% in data set [15] and 320 ± 6.8% in [16]. Moreover, the ED50 in data set [13] came out at 0.5 mg/kg.
